The chains behind the UniProt entries cited, without tags or fusion partners.
UniProt P33535, whole entry V245I: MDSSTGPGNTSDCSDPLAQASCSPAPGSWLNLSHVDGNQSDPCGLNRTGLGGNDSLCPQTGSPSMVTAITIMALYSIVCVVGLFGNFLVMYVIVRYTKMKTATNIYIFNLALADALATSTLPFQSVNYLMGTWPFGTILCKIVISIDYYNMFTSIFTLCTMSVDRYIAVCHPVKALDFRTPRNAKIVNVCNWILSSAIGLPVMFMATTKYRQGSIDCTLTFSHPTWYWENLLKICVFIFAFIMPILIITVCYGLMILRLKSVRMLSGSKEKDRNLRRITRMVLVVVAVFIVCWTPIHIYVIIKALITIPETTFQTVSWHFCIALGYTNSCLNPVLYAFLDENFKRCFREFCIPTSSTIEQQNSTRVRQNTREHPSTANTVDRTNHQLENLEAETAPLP

According to patent publication US7097988B1 (ADVANCED RESEARCH AND TECHNOLOGY INSTITUTE, dated 2006):

Target: rat μ opioid receptor (G protein activation) (Rattus norvegicus, UniProt P33535, V245I)

**Q.** Which results are given for `C[C@@H](NC(=O)[C@@H](N)Cc1ccc(O)cc1)C(=O)NCC(=O)N(C)[C@@H](Cc1ccccc1)C(=O)NCCO` [DAMGO, [D-Ala^2, N-Me-Phe^4, Gly-ol^5]-enkephalin]?
**A.** elevation of low Km GTPase activity (1 μM of DAMGO, transfected cells): 33%; GTPase activity in untransfected parental CHO cells (DAMGO treatment): not affected
